{"source": "BindingDB's records for doi:10.1016/j.bmc.2013.02.056", "about": "(Ludwig-Maximilians-University Munich, 2013)", "molecular_target": "T1, Sodium- and chloride-dependent GABA transporter 3 (Mus musculus, UniProt P31650)", "T1 sequence (P31650 whole entry)": "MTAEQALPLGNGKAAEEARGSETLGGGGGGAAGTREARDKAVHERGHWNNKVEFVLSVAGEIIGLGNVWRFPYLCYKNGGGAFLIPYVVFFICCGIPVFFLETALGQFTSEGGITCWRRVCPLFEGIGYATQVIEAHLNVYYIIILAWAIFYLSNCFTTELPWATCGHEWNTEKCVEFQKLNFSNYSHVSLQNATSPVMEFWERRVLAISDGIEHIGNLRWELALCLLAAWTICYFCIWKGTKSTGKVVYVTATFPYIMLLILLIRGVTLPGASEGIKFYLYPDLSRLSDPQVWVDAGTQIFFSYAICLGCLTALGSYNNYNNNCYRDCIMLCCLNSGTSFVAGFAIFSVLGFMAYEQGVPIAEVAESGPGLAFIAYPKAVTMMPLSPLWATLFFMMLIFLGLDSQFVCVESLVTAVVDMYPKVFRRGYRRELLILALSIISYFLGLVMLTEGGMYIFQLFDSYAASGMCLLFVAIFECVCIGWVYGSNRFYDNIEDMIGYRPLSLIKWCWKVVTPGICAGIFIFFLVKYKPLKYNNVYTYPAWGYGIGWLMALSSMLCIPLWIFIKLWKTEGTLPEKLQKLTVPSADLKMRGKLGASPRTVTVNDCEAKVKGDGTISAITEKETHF", "test": "Inhibition of mouse GAT3 expressed in HEK cells assessed as inhibition of [3H]-GABA uptake after 25 mins by liquid scintillation counting analysis"}
{"smiles": "NCCCC(=O)O", "note": "[4-amino-n-[2,3-3H]butyric acid]", "values": [{"measurement": "IC50", "value": 11.5, "unit": "µM"}]}
